{"source": "patent US12583908B2", "about": "“Albumin protein variants, production thereof and uses of same” (Yeda Research and Development Co. Ltd., priority 2022, dated 2026)", "key": {"[1]": {"test": "Thermal stability by nanoDSF", "assay_type": "physicochemical", "conditions": "His-tagged variants and commercial WT; 20 to 95° C. at 1° C./min", "procedure": "Thermal stability measurements. Thermal stability of BSA and HSA variants (His-tagged form) and of commercial WT HSA and BSA (Sigma-Aldrich A1653 and A7638, respectively) was measured by nanoscale differential scanning fluorimetry (nanoDSF), in Prometheus NT.48 instrument (NanoTemper). The temperature was increased from 20° C. to 95° C. at 1° C./min ramp. Thermal stability of HSA variants was also measured by differential scanning calorimetry (DCS) in VP-DSC instrument (Malvern), with heating from 20° C. to 95° C. at 1° C./min and cooling at the same rate."}, "HEK293T cells": {"test_system": "HEK293T cells", "test": "HEK293T cell culture with albumin variants", "assay_type": "cell-based, human", "conditions": "1 mg/ml albumin, medium with 5% FBS, 5 days", "procedure": "HEK293T adherent cells were grown in DMEM supplemented with GlutaMAX, NEAA and 5% FBS (all from Gibco) at 37° C., 5% CO2. To test the viability of the cultured cells in the presence of PROSS BSA2, HSA1 and HSA3 in comparison to the commercial BSA or HSA, respectively, cells (˜3×10^3) were seeded in 24-well plate and followed each day for 5 days. All the albumin variants were added to the cells at 1 mg/ml in duplicates, and their effect was analyzed. As a control, no protein was added to the growth medium. In each time point, cells were collected and the number of total cells, live cells and % of viable cells were determined automatically using Brightfield Cell Counter DeNovix."}}}
{"substance": "HSA WT: wild type human serum albumin, SEQ ID NO: 1; commercial sample Sigma-Aldrich A1653 used as control [reference compound]", "values": [{"measurement": "Melting temperature nanoDSF", "setting": "[1]", "value": 60, "unit": "°C"}, {"measurement": "Effect on number of HEK293T cells", "setting": "HEK293T cells", "value": "no adverse effect"}, {"measurement": "Effect on viability of HEK293T cells", "setting": "HEK293T cells", "value": "no adverse effect"}]}
